Literature values in paper PMC9603770, “Broad-Spectrum Inhibitors against Class A, B, and C Type β-Lactamases to Block the Hydrolysis against Antibiotics: Kinetics and Structural Characterization” (Microbiology Spectrum, 2022).

Chains of the proteins cited; added tags and fusions are not shown. Residues count along the entry.
UniProt P00811, 20-377: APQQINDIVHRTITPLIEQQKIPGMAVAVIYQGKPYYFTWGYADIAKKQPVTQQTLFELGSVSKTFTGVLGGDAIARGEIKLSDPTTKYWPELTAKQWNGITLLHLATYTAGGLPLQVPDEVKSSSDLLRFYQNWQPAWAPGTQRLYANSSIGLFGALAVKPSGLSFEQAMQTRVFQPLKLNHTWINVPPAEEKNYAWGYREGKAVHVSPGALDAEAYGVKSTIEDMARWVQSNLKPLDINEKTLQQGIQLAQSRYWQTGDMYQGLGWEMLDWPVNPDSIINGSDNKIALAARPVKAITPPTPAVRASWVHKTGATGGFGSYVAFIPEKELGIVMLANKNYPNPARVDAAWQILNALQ

Target: T1, Amp-C (Escherichia coli, UniProt P00811)
T1 construct: made in house; host or cells: E. coli (DH5 and BL21(DE3) named; pET-28a)
Set-up: method as in PMID 20921316
Conditions: cited from earlier work

Question: Which IC50 does the source give for `NC(=O)[C@@H]1CC[C@@H]2CN1C(=O)N2OS(=O)(=O)O` [Avibactam, reference compound] here?
Answer: 128 nM
